Reference: ChEMBL document CHEMBL1142690, “Synthesis of NO-donor bisphosphonates and their in-vitro action on bone resorption” (J Med Chem, 2005)

Assays:
[1] = Uptake ratio in bone to that of muscle at 2 hours; conditions: rat, Muscle tissue
[2] = Uptake ratio in bone to that of blood at 2 hours; conditions: rat
[3] = Uptake ratio in bone to that of muscle at 4 hours; conditions: rat, Muscle tissue
[4] = Uptake ratio in bone to that of blood at 4 hours; conditions: rat

SMILES	Biodistribution [1]	Biodistribution [2]	Biodistribution [3]	Biodistribution [4]
O=[N+]([O-])OCC(CCCC(O)(P(=O)(O)O)P(=O)(O)O)O[N+](=O)[O-] (stereo not drawn)	66.8	15.2	272	54.4
O=[N+]([O-])OCC(CCCC(P(=O)(O)O)P(=O)(O)O)O[N+](=O)[O-] (stereo not drawn)	59	10.2	154	21.2
